{
  "source": "patent US10722512B2",
  "about": "“Combinations of histone deacetylase inhibitors and either HER2 inhibitors or PI3K inhibitors” (Acetylon Pharmaceuticals, Inc., priority 2013, dated 2020)",
  "target": "T1, HDAC6 (Homo sapiens, UniProt Q9UBN7)",
  "T1 construct": "purchased BPS Biosciences",
  "T1 sequence (Q9UBN7 1-1215)": "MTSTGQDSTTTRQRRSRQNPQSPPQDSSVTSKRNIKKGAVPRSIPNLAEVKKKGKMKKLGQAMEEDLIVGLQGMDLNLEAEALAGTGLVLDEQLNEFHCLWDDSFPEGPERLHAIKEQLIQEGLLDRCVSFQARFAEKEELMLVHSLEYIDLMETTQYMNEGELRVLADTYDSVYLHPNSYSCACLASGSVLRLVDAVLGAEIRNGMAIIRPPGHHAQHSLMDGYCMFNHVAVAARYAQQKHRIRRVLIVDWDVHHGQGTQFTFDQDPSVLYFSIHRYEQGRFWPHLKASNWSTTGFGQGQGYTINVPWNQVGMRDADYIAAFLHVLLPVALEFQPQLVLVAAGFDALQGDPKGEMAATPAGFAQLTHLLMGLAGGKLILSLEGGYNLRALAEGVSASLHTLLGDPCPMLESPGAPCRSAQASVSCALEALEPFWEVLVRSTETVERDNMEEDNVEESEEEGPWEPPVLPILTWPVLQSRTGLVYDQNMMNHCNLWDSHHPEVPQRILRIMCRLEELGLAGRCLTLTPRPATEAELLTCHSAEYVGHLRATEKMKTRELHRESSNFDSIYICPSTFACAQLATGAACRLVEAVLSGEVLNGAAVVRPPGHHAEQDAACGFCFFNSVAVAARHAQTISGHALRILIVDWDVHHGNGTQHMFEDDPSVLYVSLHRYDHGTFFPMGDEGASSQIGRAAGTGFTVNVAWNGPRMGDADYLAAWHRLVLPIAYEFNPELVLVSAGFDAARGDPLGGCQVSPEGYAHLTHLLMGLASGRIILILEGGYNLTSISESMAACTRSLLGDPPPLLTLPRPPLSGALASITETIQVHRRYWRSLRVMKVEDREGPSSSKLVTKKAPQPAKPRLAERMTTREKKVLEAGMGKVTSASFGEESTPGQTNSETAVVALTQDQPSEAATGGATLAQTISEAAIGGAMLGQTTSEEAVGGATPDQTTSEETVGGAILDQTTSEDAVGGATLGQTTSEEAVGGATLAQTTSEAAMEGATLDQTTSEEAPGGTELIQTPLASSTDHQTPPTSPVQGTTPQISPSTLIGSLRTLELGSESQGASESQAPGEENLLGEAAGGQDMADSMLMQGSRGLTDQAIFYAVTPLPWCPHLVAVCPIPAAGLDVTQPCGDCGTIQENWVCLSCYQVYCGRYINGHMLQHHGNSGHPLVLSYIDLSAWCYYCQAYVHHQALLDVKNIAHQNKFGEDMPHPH",
  "experiment": "HDAC enzyme assays",
  "assay_type": "biochemical",
  "experimental": "Compounds for testing were diluted in DMSO to 50 fold the final concentration and a ten point three fold dilution series was made. […] The final enzyme concentrations used in these assays were 3.3 ng/ml (HDAC1), 0.2 ng/ml (HDAC2), 0.08 ng/ml (HDAC3) and 2 ng/ml (HDAC6). […] Five μl of compound and 20 μl of enzyme were added to wells of a black, opaque 384 well plate in duplicate. Enzyme and compound were incubated together at room temperature for 10 min. Five μl of substrate was added to each well, the plate was shaken for 60 seconds and placed into a Victor 2 microliter plate reader. The development of fluorescence was monitored for 60 min. and the linear rate of the reaction was calculated. The IC50 was determined using Graph Pad Prism by a four parameter curve fit.",
  "data": [
    {"smiles": "O=C(CCCCCCNC(=O)c1cnc(N(c2ccccc2)c2ccccc2)nc1)NO", "note": "[Compound A, 2-(diphenylamino)-N-(7-(hydroxyamino)-7-oxoheptyl) pyrimidine-5-carboxamide]", "values": [
      {"measurement": "potency as HDAC6 selective inhibitor", "setting": "HDAC6", "result": "low nM potency"},
      {"measurement": "selectivity of HDAC6 over class I HDACs", "setting": "HDAC6 over Class I HDACs (HDAC1, 2 and 3)", "result": 13, "unit": "fold"}
    ]}
  ]
}
